Cell death data for one substance are collected here from patent US9272034B2, “Treatment of conditions related to shock” (The Regents of the University of California, priority 2007, dated 2016).

For this assay, the system named is cytotoxic factors (free fatty acids) of intestinal homogenates. Description: Cell death caused by rat small intestine homogenates. It is filed as cell-based. The settings on record: addition of albumin not previously digested with protease. The text has this: Using a fluorescent substrate, the inventors found high levels of lipase activity in intestinal homogenates and cytotoxic levels of free fatty acids. […] Breakdown of free fatty acid binding proteins by proteases causes release of free fatty acids to act as powerful cytotoxic mediators.

Consider albumin, for which the cell death result is listed as “prevented cell death”.
